In ChEMBL document CHEMBL1800007, “Synthesis, activity, and structural analysis of novel α-hydroxytropolone inhibitors of human immunodeficiency virus reverse transcriptase-associated ribonuclease H” (J Med Chem, 2011) one finds inhibition data, which are given here for eleven molecules.

For the experiment, the target named is Human immunodeficiency virus type 1 reverse transcriptase (Human immunodeficiency virus 1) (UniProt Q72547). Particulars: HXB2, at 20 µM.

Molecules are shown by their SMILES. Activity calls are given as the source filed them. The calls are words filed in the database; no cut-off is given here.

With `Cc1cc(O)c(=O)c(O)c2c1C[C@@H](C(C)(O)CNc1ccccc1)CC2` (mixture of isomers), the inhibition entry is “inactive”. As for `Cc1cc(O)c(=O)c(O)c2c1C[C@@H](C(C)(O)CSCc1ccccc1)CC2` (mixture of isomers), the inhibition entry is “inactive”. Then `Cc1cc(O)c(=O)c(O)c2c1C[C@@H](C(C)NCc1ccccc1)CC2` (mixture of isomers), with “inactive”; and `CCS(=O)(=O)CC(C)(O)[C@H]1CCc2c(c(C)cc(O)c(=O)c2O)C1` (mixture of isomers), with “inactive”; and `Cc1cc(O)c(=O)c(O)c2c1C[C@@H](C(C)(O)CNCc1ccccc1F)CC2` (mixture of isomers), with “inactive”.

For the molecule `Cc1cc(O)c(=O)c(O)c2c1C[C@@H](C(C)(O)C[S+]([O-])c1ccccc1)CC2` (mixture of isomers), the inhibition result is “inactive”. With `Cc1cc(O)c(=O)c(O)c2c1C[C@@H](C(C)O)CC2` (mixture of isomers), the inhibition entry is “inactive”. Then `Cc1cc(O)c(=O)c(O)c2c1C[C@@H](C(C)(O)CN1CCCCC1)CC2` (mixture of isomers), with “inactive”. Take `Cc1cc(O)c(=O)c(O)c2c1C[C@@H](C(C)(O)CSc1ccccc1)CC2` (mixture of isomers): the inhibition result is “inactive”. To `CCSCC(C)(O)[C@H]1CCc2c(c(C)cc(O)c(=O)c2O)C1` (mixture of isomers) belongs “inactive”; to `Cc1cc(O)c(=O)c(O)c2c1C[C@@H](C(C)(O)CS(=O)(=O)c1ccccc1)CC2` (mixture of isomers), “inactive”.
